Source: patent US5773414A, “Endothelin antagonists” (Warner-Lambert Company, priority 1997, dated 1998)

Molecular target: T1, ETB (Rattus norvegicus, UniProt P21451)
T1 construct: thaw one aliquot of frozen rat cerebellar membranes; from tissue; host or cells: rat cerebellar membranes
T1 sequence (P21451 27-442): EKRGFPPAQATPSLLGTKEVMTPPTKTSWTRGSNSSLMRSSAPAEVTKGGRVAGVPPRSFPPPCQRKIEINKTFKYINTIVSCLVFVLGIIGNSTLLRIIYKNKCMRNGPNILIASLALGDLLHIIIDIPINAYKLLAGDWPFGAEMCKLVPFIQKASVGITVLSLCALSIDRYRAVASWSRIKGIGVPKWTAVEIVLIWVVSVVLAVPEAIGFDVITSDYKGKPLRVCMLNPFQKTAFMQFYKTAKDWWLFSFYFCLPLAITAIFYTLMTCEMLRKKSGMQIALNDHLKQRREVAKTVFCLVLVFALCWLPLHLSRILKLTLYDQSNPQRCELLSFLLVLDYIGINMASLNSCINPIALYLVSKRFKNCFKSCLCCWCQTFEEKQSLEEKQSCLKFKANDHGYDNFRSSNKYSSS
Test: Endothelin Receptor Binding Assay-B (ETB), [125I]-ET-1 binding in rat cerebellar membranes
Settings: Table IIa, read-out: Binding Assay IC50 at Receptor Subtypes ETB
Protocol: The tissue is made up of 20 mM tris(hydroxymethyl)aminomethane hydrochloride (Trizma) buffer, 2 mM ethylenediaminetetraacetate, 100 μM phenylmethylsulfonyl fluoride.
First, thaw one aliquot of frozen rat cerebellar membranes (2 mg protein in 0.5 mL). Next, add 0.5 mL membrane aliquot to 4.5 mL cold tissue buffer, polytron at 7,500 revolutions per minute for 10 seconds. Finally, dilute tissue suspension 1/100 (0.1 mL suspension+9.9 mL tissue buffer), polytron again, and place ice.
Mix in 150 μL of tissue to each tube, vortex briefly, then tap to force all liquids to bottom (total assay volume=250 μL). Then place the tubes in a 37° C. water bath for 2 hours.
Add 2.5 mL cold water buffer (50 mM Trizma buffer) to each tube, filter, and then wash tube with additional 2.5 mL wash buffer and add to filter. Finally, wash filters with an additional 2.5 mL of cold wash buffer.
Count filters for radioactivity in gamma counter.

With `CC[C@H](C)[C@H](NC(=O)[C@H](CC(=O)O)NC(=O)[C@H](CC(C)C)NC(=O)[C@@H](Cc1ccc2ccccc2c1)NC(C)=O)C(=O)N[C@H](C(=O)N[C@@H](Cc1c[nH]c2ccccc12)C(=O)O)[C@@H](C)CC` [Example 5, Ac--D-2-Nal--Leu--Asp--Ile--Ile--Trp] the IC50 was 4 µM.
